Data: ChEMBL document CHEMBL4680234, “Antibacterial AZT derivative regulates metastasis of breast cancer cells” (Eur J Med Chem, 2020)

What was measured:
Type in all cases: functional
Escherichia coli = experiment: Antibacterial activity against Escherichia coli KCTC 1682 assessed as reduction in bacterial growth incubated for 18 to 22 hrs by spectrophotometry based broth microdilution method; settings: time 18-22 hrs, read-out: MIC100
Staphylococcus aureus [1] = experiment: Antibacterial activity against Staphylococcus aureus KCTC 1621 assessed as reduction in bacterial growth incubated for 18 to 22 hrs by spectrophotometry based broth microdilution method; settings: time 18-22 hrs, read-out: MIC100
Staphylococcus aureus [2] = experiment: Antimicrobial activity against methicillin-resistant Staphylococcus aureus CCARM 3095 assessed as reduction in microbial growth incubated for 18 to 24 hrs by broth microdilution method; settings: time 18-24 hrs
Staphylococcus aureus [3] = experiment: Antimicrobial activity against methicillin-resistant Staphylococcus aureus CCARM 3090 assessed as reduction in microbial growth incubated for 18 to 24 hrs by broth microdilution method; settings: time 18-24 hrs
Staphylococcus aureus [4] = experiment: Antimicrobial activity against methicillin-resistant Staphylococcus aureus CCARM 3089 assessed as reduction in microbial growth incubated for 18 to 24 hrs by broth microdilution method; settings: time 18-24 hrs
Bacillus subtilis = experiment: Antibacterial activity against Bacillus subtilis KCTC 3068 assessed as reduction in bacterial growth incubated for 18 to 22 hrs by spectrophotometry based broth microdilution method; settings: time 18-22 hrs, read-out: MIC100
Pseudomonas aeruginosa = experiment: Antibacterial activity against Pseudomonas aeruginosa KCTC 1637 assessed as reduction in bacterial growth incubated for 18 to 22 hrs by spectrophotometry based broth microdilution method; settings: time 18-22 hrs, read-out: MIC100

CC[C@H](C)[C@H](NC(=O)CN)C(=O)NCC(=O)N[C@@H](C)C(=O)N[C@H](C(=O)N[C@@H](CC(C)C)C(=O)N[C@@H](CCCCN)C(=O)N[C@H](C(=O)N[C@@H](CC(C)C)C(=O)N[C@H](C(=O)N[C@H](C(=O)NCC(=O)N[C@@H](CC(C)C)C(=O)N1CCC[C@H]1C(=O)N[C@@H](C)C(=O)N[C@@H](CC(C)C)C(=O)N[C@H](C(=O)N[C@@H](CO)C(=O)N[C@@H](Cc1c[nH]c2ccccc12)C(=O)N[C@H](C(=O)N[C@@H](CCCCN)C(=O)N[C@@H](CCCNC(=N)N)C(=O)N[C@@H](CCCCN)C(=O)N[C@@H](CCCNC(=N)N)C(=O)N[C@@H](CCC(N)=O)C(=O)N[C@@H](CCC(N)=O)C(N)=O)[C@@H](C)CC)[C@@H](C)CC)[C@@H](C)O)[C@@H](C)O)C(C)C)C(C)C [MELITTIN]
MIC (Escherichia coli): 16 µg/mL (≈ 5.62 µM) | MIC (Staphylococcus aureus [1]): 8 µg/mL (≈ 2.81 µM) | MIC (Staphylococcus aureus [2]): 16 µg/mL | MIC (Staphylococcus aureus [3]): 16 µg/mL | MIC (Staphylococcus aureus [4]): 16 µg/mL | MIC (Bacillus subtilis): 8 µg/mL (≈ 2.81 µM) | MIC (Pseudomonas aeruginosa): 16 µg/mL (≈ 5.62 µM)

Values after ≈ are worked out from the molar mass of the structure shown.
